Test results: BindingDB's records for patent US8633183 (Boehringer Ingelheim International, 2014)

Chains of the proteins cited; added tags and fusions are not shown.
UniProt P42336, whole entry: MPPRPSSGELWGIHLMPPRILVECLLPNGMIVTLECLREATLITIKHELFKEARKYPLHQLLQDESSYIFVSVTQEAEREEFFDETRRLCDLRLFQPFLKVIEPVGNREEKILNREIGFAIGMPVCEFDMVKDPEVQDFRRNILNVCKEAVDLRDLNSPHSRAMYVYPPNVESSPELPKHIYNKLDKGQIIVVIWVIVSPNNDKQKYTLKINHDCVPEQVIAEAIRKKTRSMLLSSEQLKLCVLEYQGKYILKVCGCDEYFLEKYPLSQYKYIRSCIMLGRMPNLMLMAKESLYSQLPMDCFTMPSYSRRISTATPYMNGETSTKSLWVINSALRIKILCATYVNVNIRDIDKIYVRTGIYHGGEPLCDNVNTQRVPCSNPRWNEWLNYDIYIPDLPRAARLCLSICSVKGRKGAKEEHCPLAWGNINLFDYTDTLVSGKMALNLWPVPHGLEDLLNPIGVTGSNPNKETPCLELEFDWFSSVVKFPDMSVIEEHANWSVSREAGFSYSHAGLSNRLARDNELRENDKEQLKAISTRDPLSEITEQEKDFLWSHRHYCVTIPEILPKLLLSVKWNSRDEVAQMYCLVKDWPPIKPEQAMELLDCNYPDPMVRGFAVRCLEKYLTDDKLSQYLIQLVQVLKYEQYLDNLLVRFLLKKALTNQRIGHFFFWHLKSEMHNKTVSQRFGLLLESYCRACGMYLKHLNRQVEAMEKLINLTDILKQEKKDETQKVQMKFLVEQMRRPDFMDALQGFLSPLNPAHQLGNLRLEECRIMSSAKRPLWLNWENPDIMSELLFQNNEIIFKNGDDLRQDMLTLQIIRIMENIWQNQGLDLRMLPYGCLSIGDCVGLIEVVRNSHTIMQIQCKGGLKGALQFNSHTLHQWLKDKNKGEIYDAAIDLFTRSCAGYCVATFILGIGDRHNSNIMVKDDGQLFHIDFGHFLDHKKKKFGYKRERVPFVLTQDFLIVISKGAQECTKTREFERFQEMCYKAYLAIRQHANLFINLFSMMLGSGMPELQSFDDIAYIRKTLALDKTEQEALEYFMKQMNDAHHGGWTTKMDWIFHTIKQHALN

Target: Phosphatidylinositol 4,5-bisphosphate 3-kinase catalytic subunit alpha isoform (Homo sapiens, UniProt P42336)

Work on `CCc1ncnc(-c2ccc(C(=O)N3CCC(N(C)C)C3)c(C)c2)c1C#Cc1ccc(N)nc1` (stereo unspecified) [US8633183, E-126] yielded an IC50 of 195 nM.
